Values quoted from earlier work in patent US8846115B2, “Anti-inflammatory cyclooxygenase inhibitors” (Metaproteomics, LLC, priority 2001, dated 2014).

Sequences of proteins named here, by UniProt entry; tags and fusion partners are left off. Residues count along the entry.
UniProt P23219, 24-599: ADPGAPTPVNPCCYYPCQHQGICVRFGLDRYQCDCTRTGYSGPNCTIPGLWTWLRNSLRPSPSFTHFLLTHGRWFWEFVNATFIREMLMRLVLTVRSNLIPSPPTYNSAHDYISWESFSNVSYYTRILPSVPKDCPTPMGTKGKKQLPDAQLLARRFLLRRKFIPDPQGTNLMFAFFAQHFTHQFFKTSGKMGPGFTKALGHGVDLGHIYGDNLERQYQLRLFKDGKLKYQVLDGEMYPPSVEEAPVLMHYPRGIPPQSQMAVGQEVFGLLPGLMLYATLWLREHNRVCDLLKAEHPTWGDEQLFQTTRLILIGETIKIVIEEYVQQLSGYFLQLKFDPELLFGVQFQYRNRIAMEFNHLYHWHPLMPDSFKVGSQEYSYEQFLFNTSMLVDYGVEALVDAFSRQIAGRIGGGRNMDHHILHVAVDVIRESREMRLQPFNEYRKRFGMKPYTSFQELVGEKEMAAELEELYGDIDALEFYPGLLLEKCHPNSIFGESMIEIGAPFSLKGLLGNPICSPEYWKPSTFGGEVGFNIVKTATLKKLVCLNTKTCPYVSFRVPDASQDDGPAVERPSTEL

Molecular target: COX-1 (Homo sapiens, UniProt P23219)
Details: read-out: IC 50 for COX-1 inhibition by the WHMA method; cited from earlier work

For `CS(=O)(=O)c1ccc(C2=C(c3ccccc3)C(=O)OC2)cc1` [rofecoxib], the IC50 is listed as 63 µM.
